Columns and labels:
PC9-BrM cells = experiment: PC9-BrM metastatic EGFR-mutant lung cancer mouse model, long-term osimertinib treatment; details: continuous osimertinib treatment, bioluminescence imaging
H1650-BrM cells = experiment: H1650-BrM metastatic EGFR-mutant lung cancer mouse model, long-term osimertinib treatment; details: of osimertinib-treated mice with brain relapse

## C=CC(=O)Nc1cc(Nc2nccc(-c3cn(C)c4ccccc34)n2)c(OC)cc1N(C)CCN(C)C [osimertinib]
PC9-BrM cells
  progression of brain metastases: gradually progressed
H1650-BrM cells
  relapsed mice that also developed lung lesions: 45%

From patent US20250381183A1, “TARGETING S100A9-ALDH1A1-RETINOIC ACID SIGNALING TO SUPPRESS BRAIN RELAPSE IN EGFR-MUTANT LUNG CANCER” (The Trustees of Columbia University in the City of New York, priority 2022, published 2025)
